Only a part is listed here, and it is no random draw. Active and inactive are the calls of the source.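 Rule for the calls: active = compounds whose cell count with miR-34 switched on is under 0.7 times the count with it off; inactive = the rest.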
Assay: viability loss with induced miR-34 in A549 – imaging, A549 dox-inducible miR-34, nuclei and caspase counts, primary screen (AID 1347080); note: test concentration not given here
Conditions: A549 miR-34 inducible, Hoechst nuclei count, 48 h; hits give low values; cell number ratio, induced over uninduced

| SMILES | fold change |
| --- | --- |
| CC1=C2[N-][C@@H](C(CC(N)=O)[C@@]2(C)CCC(=O)NCC(C)OP(=O)([O-])OC2C(CO)OC(n3cnc4cc(C)c(C)cc43)C2O)[C@]2(C)N=C(C(C)=C3N=C(C=C4N=C1C(CCC(N)=O)C4(C)C)C(CCC(N)=O)[C@]3(C)CC(N)=O)C(CCC(N)=O)[C@]2(C)CC(N)=O.[C-]#N.[Co+3] (stereo partly drawn) | inactive: 0.879 |
| C/C1=C2N=C(/C=C3N=C(/C(C)=C4\[N-][C@@](C)([C@@H]5N=C1[C@](C)(CCC(=O)NC[C@@H](C)OP(=O)([O-])O[C@H]1[C@@H](O)[C@@H](n6cnc7cc(C)c(C)cc76)O[C@@H]1CO)[C@H]5CC(N)=O)[C@@](C)(CC(N)=O)[C@@H]4CCC(N)=O)[C@@](C)(CC(N)=O)[C@@H]\3CCC(N)=O)C(C)(C)[C@@H]/2CCC(N)=O.[C-]#N.[Co+3] | inactive: 0.834 |
| CN(C)CCS | inactive: 0.914 |

From PubChem BioAssay AID1347080 (ICCB-Longwood Screening Facility, Harvard Medical School, 2019)
